Reference: publication PMC8667020

B1: ASC-YFP [human] / itself (parent)
chain: MGRARDAILDALENLTAEELKKFKLKLLSVPLREGYGRIPRGALLSMDALDLTDKLVSFYLETYGAELTANVLRDMGLQEMAGQLQAATHQGSGAAPAGIQAPPQSAAKPGLHFIDQHRAALIARVTNVEWLLDALYGKVLTDEQYQAVRAEPTNPSKMRKLFSFTPAWNWTCKDLLLQALRESQSYLVEDLERS

Variants of: B1
Test: flow cytometry of ASC-YFP speck formation in transfected HEK293 cells
Conditions: with itself, read off a plot

Variant	screen value
chain 1 H118A	28%
chain 1 K174A	24%
chain 1 L177A L178A	34%
chain 1 L192A	17%
chain 1 R119A	20%
chain 1 W169A	22%
